Test results published in patent US20040265931.

Molecular target: ubiquitinated Flag-p53

B1: recombinant Flag-HAUSP-cs (protein)
chain: MNHQQQQQQQKAGEQQLSEPEDMEMEAGDTDDPPRITQNPVINGNVALSDGHNTAEEDMEDDTSWRSEATFQFTVERFSRLSESVLSPPCFVRNLPWKIMVMPRFYPDRPHQKSVGFFLQCNAESDSTSWSCHAQAVLKIINYRDDEKSFSRRISHLFFHKENDWGFSNFMAWSEVTDPEKGFIDDDKVTFEVFVQADAPHGVAWDSKKHTGYVGLKNQGATSYMNSLLQTLFFTNQLRKAVYMMPTEGDDSSKSVPLALQRVFYELQHSDKPVGTKKLTKSFGWETLDSFMQHDVQELCRVLLDNVENKMKGTCVEGTIPKLFRGKMVSYIQCKEVDYRSDRREDYYDIQLSIKGKKNIFESFVDYVAVEQLDGDNKYDAGEHGLQEAEKGVKFLTLPPVLHLQLMRFMYDPQTDQNIKINDRFEFPEQLPLDEFLQKTDPKDPANYILHAVLVHSGDNHGGHYVVYLNPKGDGKWCKFDDDVVSRCTKEEAIEHNYGGHDDDLSVRHCTNAYMLVYIRESKLSEVLQAVTDHDIPQQLVERLQEEKRIEAQKRKERQEAHLYMQVQIVAEDQFCGHQGNDMYDEEKVKYTVFKVLKNSSLAEFVQSLSQTMGFPQDQIRLWPMQARSNGTKRPAMLDNEADGNKTMIELSDNENPWTIFLETVDPELAASGATLPKFDKDHDVMLFLKMYDPKTRSLNYCGHIYTPISCKIRDLLPVMCDRAGFIQDTSLILYEEVKPNLTERIQDYDVSLDKALDELMDGDIIVFQKDDPENDNSELPTAKEYFRDLYHRVDVIFCDKTIPNDPGFVVTLSNRMNYFQVAKTVAQRLNTDPMLLQFFKSQGYRDGPGNPLRHNYEGTLRDLLQFFKPRQPKKLYYQQLKMKITDFENRRSFKCIWLNSQFREEEITLYPDKHGCVRDLLEECKKAVELGEKASGKLRLLEIVSYKIIGVHQEDELLECLSPATSRTFRIEEIPLDQVDIDKENEMLVTVAHFHKEVFGTFGIPFLLRIHQGEHFREVMKRIQSLLDIQEKEFEKFKFAIVMTGRHQYINEDEYEVNLKDFEPQPGNMSHPRPWLGLDHFNKAPKRSRYTYLEKAIKIHN
B1 was tested, and the “in vitro deubiquitination of purified ubiquitinated p53” value was “the mutant was functionally defective in deubiquitinating p53 in vitro”.
